PubChem BioAssay AID1066 (SRMLSC, 2008)
The entries are a selection whose mix differs from that of the whole data set. Active and inactive are the calls of the source.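 How the source made its calls: active means inhibition above a set limit, the median over all tested compounds plus 3 SD (cut at about 9.5% in these data); inconclusive means no clear call, values can overlap the other calls; inactive means the rest.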

System: HMG-CoA reductase (Enterococcus faecalis, mvaE)
Test: inhibitors of E. faecalis class II HMGR, primary screen, biochemical, Enterococcus faecalis (AID 1066);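 further: enzyme runs in reverse so mevalonate oxidation gives rising NADPH absorbance; 0% = complete reaction with DMSO and 100% = background rate lacking mevalonate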
Settings: purified E. faecalis HMGR, NADPH absorbance 340 nm kinetic; at 10 µM; hits give high values

Row | Compound | inhibition
1 | CC(C)(C)C(=O)NC(Sc1ccccc1)C(Cl)(Cl)Cl (centres undefined) | inactive: -0.87%
2 | CCOc1ccc(C2=NCC(CBr)S2)cc1 (centres undefined) | inactive: -4.15%
3 | O=P1(Nc2nc3ccc(Cl)cc3s2)COc2ccccc2O1 (centres undefined) | inactive: -4.36%
4 | CC(=O)Nc1ccc(Oc2c([N+](=O)[O-])cc([N+](=O)[O-])cc2[N+](=O)[O-])cc1 | inactive: -4.03%
5 | CCOC(=O)NC(Sc1ccccc1)C(Cl)(Cl)Cl (centres undefined) | inactive: 2.19%
6 | c1ccc(-c2nn[nH]n2)c(-c2nn[nH]n2)c1 | inactive: -2.44%
7 | O=C(NC1CCS(=O)(=O)C1)NP(=S)(Oc1ccccc1)Oc1ccccc1 (centres undefined) | inactive: -1.24%
8 | CCNC(=S)/N=C(\N)N[N+](=O)[O-] | inactive: -1.92%
9 | O=c1c2cc([N+](=O)[O-])ccc2[nH]c2c([N+](=O)[O-])cc([N+](=O)[O-])cc12 | inactive: 2.34%
10 | CCC(=O)N1C2C3N(C(=O)CC)C1C1N(C(=O)CC)C(C(N1C(=O)CC)N3C(=O)CC)N2C(=O)CC | inactive: -4.82%
11 | Cc1ccc(OP(=O)(Nc2ccccn2)Oc2ccc(C)cc2)cc1 | inactive: 3.19%
12 | CC(=O)NC(SC(=S)N(CC(C)C)CC(C)C)C(Cl)(Cl)Cl (centres undefined) | inactive: 1.66%
13 | COC(=O)c1cc2c(s1)N=C(c1ccccc1)N(C)P2(=O)N1CCOCC1 (centres undefined) | inactive: -2.28%
14 | O=P(Nc1ccccn1)(c1ccc(Br)cc1)c1ccc(Br)cc1 | inactive: 0.32%
15 | O=C(OC1CN2CCC1CC2)c1cccc(Cl)c1 (centres undefined) | inactive: -7.74%
16 | C(Cc1nn[nH]n1)Cc1nn[nH]n1 | inactive: -5.01%
17 | CC(=O)NC(SC(=S)N(C)C)C(Cl)(Cl)Cl (centres undefined) | inactive: -3.51%
18 | c1nnnn1CCn1cnnn1 | inactive: -0.96%
19 | O=P(Nc1nccs1)(c1ccccc1)c1ccccc1 | inactive: 2.74%
20 | CC(C)C(=O)NC(Sc1ccccc1)C(Cl)(Cl)Cl (centres undefined) | inactive: -5.38%
21 | O=[N+]([O-])c1cc([N+](=O)[O-])c(CCNc2ccccc2)c([N+](=O)[O-])c1 | inactive: 1.83%
22 | CCc1nc2c(n1)c1c(non1O)c1c2no[n+]1[O-] | inactive: -0.55%
23 | Cc1ccc(NP(=O)(Oc2ccccc2)Oc2ccccc2)nc1 | inactive: -0.45%
24 | CC(=O)N1C2C3N(C(C)=O)C1C1N(C(C)=O)C(C(N1C(C)=O)N3C(C)=O)N2C(C)=O | inactive: -5.78%
25 | O=[N+]([O-])c1cccc2n[nH]nc12 | inactive: -5.99%
26 | COc1ccc(C2=NCC(CBr)S2)cc1 (centres undefined) | inactive: -1.29%
27 | CC1CCN(C(=O)Oc2c(Cl)cc(Cl)c3cccnc23)CC1 | inactive: 3.75%

Row | Compound | inhibition
28 | CN(C)C(=O)OCCc1n(C)cc[n+]1C | inactive: -2.14%
29 | CC(C)=N/N=C(\N)N[N+](=O)[O-] | inactive: -2.21%
30 | CCN(/C(=N/P(=O)(N1CCOCC1)N1CCOCC1)N1CCOCC1)c1ccc(OC)cc1 | inactive: 1.37%
31 | O=[N+]([O-])c1ncn(CCn2ncnc2[N+](=O)[O-])n1 | inactive: 1.1%
32 | Cc1cc(SC(NC(=O)c2ccc(F)cc2)C(Cl)(Cl)Cl)ncn1 (centres undefined) | inactive: 1.17%
33 | CCOP(=O)(Nc1ccccc1)OCC | inactive: 1.31%
34 | CCN(N=Nc1nonc1N)c1nonc1N | inactive: -0.1%
35 | CN1CCCC(OC(=O)C(c2ccccc2)c2ccccc2)C1 (centres undefined) | inactive: -0.04%
36 | Clc1ccc(Cl)c(NC2=NCC(CBr)S2)c1 (centres undefined) | inactive: -0.15%
37 | COc1ccccc1OP(=O)(Nc1ccc(C)cn1)Oc1ccccc1OC | inactive: -3.71%
38 | Cc1ccc(N/C(=N/P(=O)(N2CCOCC2)N2CCOCC2)N2CCOCC2)cc1 | inactive: -11.3%
39 | NC(=O)c1cc([N+](=O)[O-])cc([N+](=O)[O-])c1N | inactive: 1.76%
40 | O=C(NC(Sc1ccncn1)C(Cl)(Cl)Cl)c1ccccc1 (centres undefined) | inactive: 2.58%
41 | Cc1c2non([O-])c-2c(C)[n+](=O)[n+]1[O-] | inactive: -4.09%
42 | Oc1ccccc1CNc1ccccn1 | inactive: -2.15%
43 | CC(C)CC(=O)NC(Sc1ccc(Cl)cc1)C(Cl)(Cl)Cl (centres undefined) | inactive: -3.75%
44 | COc1ccc2nc(NP(=O)(c3ccccc3)c3ccccc3)sc2c1 | inactive: -1.42%
45 | Cc1c2c(nc3ccccc13)SC(C(Cl)Cl)C2 (centres undefined) | inactive: -3.11%
46 | Cc1cc(=O)[nH]c(N[N+](=O)[O-])n1 | inactive: -4.34%
47 | O=C(OC1CN2CCC1CC2)C12CC3CC(CC(C3)C1)C2 (centres undefined) | inactive: 1.59%
48 | COc1ccc(N/C(=N/P(=O)(N2CCOCC2)N2CCOCC2)N2CCOCC2)cc1 | inactive: -1.27%
49 | Cc1ccc2nc3c(c(C)c2c1)CC(C(Cl)Cl)S3 (centres undefined) | inactive: -3.1%
50 | O=[N+]([O-])c1cc([N+](=O)[O-])c(-c2ccn[nH]2)s1 | inactive: -4.93%
51 | CC(C)NC(=O)NP(=O)(Oc1ccccc1)Oc1ccccc1 | inactive: -16.1%
52 | CCN(CC)C(=S)SC(NC=O)C(Cl)(Cl)Cl (centres undefined) | inactive: -0.98%
53 | ClCCSc1nnc(-c2cccnc2)o1 | inactive: -4.48%
54 | Cc1cc(SC(NC(=O)c2ccccc2)C(Cl)(Cl)Cl)nc(C(C)C)n1 (centres undefined) | inactive: -1.64%

Row | Compound | inhibition
55 | Cc1cc(SC(NC=O)C(Cl)(Cl)Cl)ncn1 (centres undefined) | inactive: -3.62%
56 | O=P(Nc1ccccn1)(c1cccc2ccccc12)c1cccc2ccccc12 | inactive: -2.83%
57 | O=C(COc1ccccc1)OC1CN2CCC1CC2 (centres undefined) | inactive: -1.48%
58 | COP1(=S)c2c(C)nn(CCC#N)c2N=C(c2ccc(F)cc2)N1C (centres undefined) | inactive: -12.9%
59 | CCC(C)N(CC(C)C)C(=S)SC(NC(C)=O)C(Cl)(Cl)Cl (centres undefined) | inactive: -6.6%
60 | Clc1n[nH]nc1-c1nn[nH][15n]1 | inactive: -3.21%
61 | O=P1(Nc2ccccn2)COc2ccccc2OC1 | inactive: -1.27%
62 | CN(C(=O)Cc1ccc(Cl)c(Cl)c1)[C@@H]1CCCC[C@H]1N1CCCC1 | inactive: 4.79%
63 | CC(C)/C=N\N=C(\N)N[N+](=O)[O-] | inactive: -0.66%
64 | CN(C)C1(CNC(=O)c2ccc(S(C)(=O)=O)cc2)CCCCC1 | inactive: 6.34%
65 | CC1CCC(C(C)C)C(OP(=O)(Nc2ccccn2)c2ccccc2)C1 (centres undefined) | inactive: -6.08%
66 | Cc1nn(-c2ccccc2)c2c1P(=O)(N1CCOCC1)N(C)C(c1ccccc1)=N2 (centres undefined) | inactive: -3.19%
67 | Cc1ccc(OCC(=O)OC2CN3CCC2CC3)cc1 (centres undefined) | inactive: -0.43%
68 | O=P1(Nc2ccc(Br)cn2)COc2ccccc2OC1 | inactive: 2.17%
69 | O=P1(Nc2ncccn2)COc2ccccc2OC1 | inactive: 4.12%
70 | O=P(Nc1nccs1)(Oc1ccccc1)Oc1ccccc1 | inactive: -3.61%
71 | O=P(Nc1nccs1)(c1ccccc1)c1nc2ccccc2s1 (centres undefined) | inactive: -9.85%
72 | CCOP1(=S)c2c(C)nn(CCC#N)c2N=C(c2ccccc2F)N1C (centres undefined) | inactive: -9.14%
73 | CCOP1(=S)c2c(C)nn(CCC#N)c2N=C(c2ccc(F)cc2)N1C (centres undefined) | inactive: -1.1%
74 | O=[N+]([O-])c1ccc2c(c1)nnn2O | inactive: -4.53%
75 | Cc1cccc(OCC(=O)OC2CN3CCC2CC3)c1 (centres undefined) | inactive: -5.02%
76 | COc1cc(C(=O)NCC2(N3CCOCC3)CCCCC2)cc(Cl)c1OC(C)C | inactive: -5.69%
77 | CCOP(=O)(Nc1cccc2ccccc12)OCC | inactive: 1.2%
78 | COc1cc(C2NCCC3(OCCO3)C2(C)C)cc(OC)c1OC (centres undefined) | inactive: -7.64%
79 | Cc1ccc(NCCc2c([N+](=O)[O-])cc([N+](=O)[O-])cc2[N+](=O)[O-])cc1 | inactive: -0.92%
